In PubChem BioAssay AID1662 (Broad Institute, 2009):
Only a part is listed here, and it is no random draw. Some structures show a salt or complex split into parts, the way the source records it. The source made the active and inactive calls.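 Rule for the calls: active = mean replicate score, as percent of positive control median, at least 50; inconclusive = mean below 50 but one replicate at or above 50; inactive = mean and every replicate below 50.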

test: S. pyogenes SKKanGAS growth inhibitors in kanamycin, primary screen, streptokinase expression inhibitor project, SKKanGAS strain, BacTiter-Glo luminescence (AID 1662); details: 6 h, at 7.5 µM, active compounds read high;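 note: strain carries kanamycin resistance gene driven by streptokinase promoter and grows in 40 µg/ml kanamycin; loss of luminescence reflects streptokinase promoter inhibition or plain growth inhibition; 0% = median of DMSO wells and 100% = positive control at its reference dose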

Compound | inhibition
COc1ccccc1OP(C)(=O)Nc1ccc(C)cc1C (stereo not drawn) | inactive: 3.01%
CP(=O)(Nc1ccccn1)Oc1ccccc1 (stereo not drawn) | inactive: 2.41%
CCc1ccc(OP(C)(=O)O)cc1 | inactive: 0.756%
O=[N+]([O-])c1cc([N+](=O)[O-])c(Nc2ccccn2)c([N+](=O)[O-])c1 | active: 70.2%
Cc1c(NP(C)(=O)Oc2ccc(C(C)C)cc2)c(=O)n(-c2ccccc2)n1C (stereo not drawn) | inactive: -4.4%
COc1ccc(OP(C)(=O)Nc2ccccn2)cc1 (stereo not drawn) | inactive: 4.49%
CN(C)CCOC(=O)C(O)(c1ccccc1)C1CCCC1 (stereo not drawn) | inactive: -0.976%
COc1ccccc1OP(C)(=O)Nc1ccc(Br)cc1 (stereo not drawn) | inactive: -3.33%
CP(=O)(OCCOc1ccccc1)OCCOc1ccccc1 | inactive: 3.43%
CP(=O)(Nc1ccc(Cl)cc1Cl)Oc1ccccc1 (stereo not drawn) | inactive: 0.553%
Cc1nc2ccc3ccccc3c2o1.O=[N+]([O-])c1cc([N+](=O)[O-])c(O)c([N+](=O)[O-])c1 | inactive: 16.2%
COc1ccccc1OP(C)(=O)Nc1ccc(C)c(C)c1 (stereo not drawn) | inactive: -1.82%
COc1ccc(OP(C)(=O)Nc2ccccc2Br)cc1 (stereo not drawn) | inactive: -8.41%
Cc1cc(C)cc(OP(C)(=O)Nc2cccc(C(F)(F)F)c2)c1 (stereo not drawn) | inactive: -2.53%
CCOC(=O)c1ccc(NP(C)(=O)Oc2ccc(Cl)cc2)cc1 (stereo not drawn) | inactive: 8.79%
CP(=O)(OC12CC3CC(CC(C3)C1)C2)OC12CC3CC(CC(C3)C1)C2 | inactive: 0.576%
Nc1ccc2c(ccc3cccnc32)n1.O=[N+]([O-])c1cc([N+](=O)[O-])c(O)c([N+](=O)[O-])c1 | inactive: -2.98%
CN(C)C(=O)c1c([N+](=O)[O-])cc([N+](=O)[O-])cc1[N+](=O)[O-] | inactive: -7.48%
CC(C)(C)c1ccc(OP(C)(=O)O)cc1 | inactive: 3.05%
COc1ccccc1OP(C)(=O)Nc1ccccc1Br (stereo not drawn) | inactive: 13.9%
CP(=O)(Nc1ccc(Cl)cc1)Oc1ccc(F)cc1 (stereo not drawn) | inactive: -8.1%
O=C(OCCCN1CCCC1)C(O)(c1ccccc1)C1CCCCC1 (stereo not drawn) | inactive: -3.13%

Compound | inhibition
COc1ccccc1OP(C)(=O)Nc1c(C)n(C)n(-c2ccccc2)c1=O (stereo not drawn) | inactive: -2.53%
CCc1ccc(OP(C)(=O)Nc2cccnc2)cc1 (stereo not drawn) | inactive: 0.633%
CP(=O)(Oc1ccccc1)N1CCOC1=O (stereo not drawn) | inactive: -4.66%
COc1ccc(OP(C)(=O)Nc2ccc(Br)cc2)cc1 (stereo not drawn) | inactive: -4.34%
CCN(CC)CC(O)COC(=O)C(O)(c1ccccc1)C1CCCCC1 (stereo not drawn) | inactive: -4.85%
Cc1ccccc1NP(C)(=O)Nc1ccccc1C | inactive: 1.67%
CP(=O)(Nc1ccc2c(c1)OCCO2)Oc1ccccc1 (stereo not drawn) | inactive: 4.89%
CCOP(C)(=S)SCC(=O)NC(C)(CC)C(=O)O (stereo not drawn) | inactive: -1.43%
CP(=O)(Nc1ccc(SC(F)(F)F)cc1)Oc1ccc(F)cc1 (stereo not drawn) | inactive: 3.72%
O=[N+]([O-])c1ccc(OP2(=O)COCCO2)cc1 (stereo not drawn) | inactive: -0.804%
Cc1cc(-c2cccc3ccccc23)c(C)cn1.O=[N+]([O-])c1cc([N+](=O)[O-])c(O)c([N+](=O)[O-])c1 | inactive: 7.95%
O=[N+]([O-])c1cc([N+](=O)[O-])c(NCC2CCS(=O)(=O)C2)c([N+](=O)[O-])c1 (stereo not drawn) | inactive: 6.11%
CN(C)CCOC(=O)C(O)(c1ccccc1)C1CCCCC1 (stereo not drawn) | inactive: -5.32%
COc1ccc(NP(C)(=O)Oc2ccccc2OC)cc1 (stereo not drawn) | inactive: -4.88%
COc1ccc(OP(C)(=O)Nc2cccc(Br)c2)cc1 (stereo not drawn) | inactive: 5.31%
CP(=O)(Nc1ccccc1)Oc1ccc(F)cc1 (stereo not drawn) | inactive: -0.234%
O=[N+]([O-])c1cc([N+](=O)[O-])c(OC2CCCCC2O)c([N+](=O)[O-])c1 (stereo not drawn) | inactive: -3.07%
CCCCCOc1ccc(NP(C)(=O)Oc2ccc(Cl)cc2Cl)cc1 (stereo not drawn) | inactive: 12.7%
CCN(CC)CCCOC(=O)C(O)(c1ccccc1)C1CCCCC1 (stereo not drawn) | inactive: -2.61%
CCOC(=O)c1ccc(NP(C)(=O)Oc2ccc(F)cc2)cc1 (stereo not drawn) | inactive: -2.58%
COc1ccc(OP(C)(=O)Nc2ccc(SC(F)(F)F)cc2)cc1 (stereo not drawn) | inactive: -2.99%
COc1ccc2c(c1O)-c1c(O)c(OC)cc3c1[C@H](C2)[N+](C)(C)CC3.O=[N+]([O-])c1cc([N+](=O)[O-])c([O-])c([N+](=O)[O-])c1[O-] | inactive: -0.622%

Compound | inhibition
O=C(OC1CN2CCC1CC2)c1ccc([N+](=O)[O-])cc1 (stereo not drawn) | inactive: 16.2%
O=C(OCCN1CCN(CCOCc2ccccc2)CC1)C(O)(c1ccccc1)c1ccccc1 | inactive: -10.8%
CP(=O)(Nc1ccccc1F)Oc1ccccc1 (stereo not drawn) | inactive: -1.3%
CC(C)c1ccc(OP(C)(=O)Nc2ccc(SC(F)(F)F)cc2)cc1 (stereo not drawn) | inactive: 9.74%
Cc1ccc(C)c(NP(C)(=O)Oc2ccccc2)c1 (stereo not drawn) | inactive: -1.57%
CP(=O)(Nc1cccc(Br)c1)Oc1ccccc1 (stereo not drawn) | inactive: -4.17%
Cc1cc(C)cc(OP(C)(=O)Nc2ccccn2)c1 (stereo not drawn) | inactive: -13.6%
CCOC(=O)c1ccc(NP(C)(=O)Oc2cc(C)cc(C)c2)cc1 (stereo not drawn) | inactive: -4.55%
Cc1cc(C)cc(OP(C)(=O)Nc2ccc(C)cc2C)c1 (stereo not drawn) | inactive: -3.16%
COc1ccccc1OP(C)(=O)Nc1cccc(Br)c1 (stereo not drawn) | inactive: -23%
CC1=NCCc2c1[nH]c1ccccc21.O=[N+]([O-])c1cc([N+](=O)[O-])c(O)c([N+](=O)[O-])c1 | inactive: 5.95%
O=C(O)c1cccc(Nc2c([N+](=O)[O-])cc([N+](=O)[O-])cc2[N+](=O)[O-])c1 | inactive: 13.1%
CP(=O)(Nc1ccc(SC(F)(F)F)cc1)Oc1ccccc1 (stereo not drawn) | inactive: 0.164%
CCCOc1ccc(NP(C)(=O)Oc2ccc(Cl)cc2)cc1 (stereo not drawn) | inactive: 5.25%
CN1CCCCC1COC(=O)C1(O)c2ccccc2CCc2ccccc21 (stereo not drawn) | inactive: -13.6%
COc1ccccc1OP(C)(=O)Nc1c(C)cccc1C (stereo not drawn) | inactive: -6.64%
CCOC(=O)C(CC)C1=NC(C)(C)Cc2ccccc21.O=[N+]([O-])c1cc([N+](=O)[O-])c(O)c([N+](=O)[O-])c1 (stereo not drawn) | inactive: 8.3%
O=[N+]([O-])c1cc([N+](=O)[O-])c(Nc2nnnn2CCO)c([N+](=O)[O-])c1 | inactive: -0.484%
O=[N+]([O-])c1cc([N+](=O)[O-])c(-c2cnn(-c3ccccc3)c2)c([N+](=O)[O-])c1 | inactive: 11.8%
O=[N+]([O-])c1cc([N+](=O)[O-])c(-n2nnc3ccccc32)c([N+](=O)[O-])c1 | inactive: -11.9%
CP(=O)(Nc1ccccn1)Oc1ccc(Cl)cc1 (stereo not drawn) | inactive: -1.74%
O=[N+]([O-])c1cc([N+](=O)[O-])c(O)c([N+](=O)[O-])c1.c1ccc(Oc2ccncc2)cc1 | inactive: 2.84%

Compound | inhibition
CCOC(=O)c1ccc(NP(C)(=O)Oc2ccc(OC)cc2)cc1 (stereo not drawn) | inactive: 1.78%
CCOP(C)(=S)SCC(=O)NC(C)C(=O)O (stereo not drawn) | inactive: -2.74%
Cc1cc(C)cc(OP(C)(=O)Nc2ccc(SC(F)(F)F)cc2)c1 (stereo not drawn) | inactive: 2.68%
CCc1ccc(OP(C)(=O)N2CCN(c3ccc([N+](=O)[O-])cc3)CC2)cc1 (stereo not drawn) | inactive: -12.7%
CP(=O)(NC(=O)Nc1ccccc1)Oc1ccccc1 (stereo not drawn) | inactive: -3.76%
CP(=O)(Oc1ccccc1)OC(c1ccccc1)C(F)(F)F (stereo not drawn) | inactive: -0.541%
CP(=O)(Nc1ccc(SC(F)(F)F)cc1)Oc1ccc(Cl)cc1 (stereo not drawn) | inactive: 9.03%
Cc1cccc(C)c1OP(C)(=O)Nc1ccc(SC(F)(F)F)cc1 (stereo not drawn) | inactive: -1.63%
CP(=O)(Nc1ccccc1Br)Oc1ccccc1 (stereo not drawn) | inactive: 4.75%
COc1ccccc1OP(C)(=O)Nc1ccccc1 (stereo not drawn) | inactive: -12.1%
CP(=S)(Nn1cnnc1)Oc1ccccc1 (stereo not drawn) | inactive: -9.08%
Cc1cc(C)cc(OP(C)(N)=O)c1 (stereo not drawn) | inactive: -4.03%
COc1ccc(OP(C)(=O)Nc2cccc(F)c2)cc1 (stereo not drawn) | inactive: -2.32%
COc1ccccc1OP(C)(=O)Nc1cc(Cl)ccc1C (stereo not drawn) | inactive: 0.751%
Cc1ccc(NP(C)(=O)Oc2ccccc2)c(C)c1 (stereo not drawn) | inactive: -3.19%
COc1ccccc1OP(C)(=O)Nc1ccc(C)cc1 (stereo not drawn) | inactive: 2.43%
CCOC(=O)c1ccc(NP(C)(=O)Oc2ccccc2)cc1 (stereo not drawn) | inactive: -0.0985%
O=[N+]([O-])c1ccc2c(c1)C=Nc1ccccc1O2 | inactive: -4.64%
Cc1cccc(C)c1OP(C)(N)=O (stereo not drawn) | inactive: -1.34%
CC(C)(C)c1ccc(OP(C)(=O)Nc2ccc(SC(F)(F)F)cc2)cc1 (stereo not drawn) | inactive: 13.4%
O=[N+]([O-])c1cc([N+](=O)[O-])c(Nc2cccnc2)c([N+](=O)[O-])c1 | inactive: 15.9%
CCN(CC)CCCOC(=O)C(O)(c1ccccc1)c1ccccc1 | inactive: -4.31%
